For 31 compounds, z-score results are on record in PubChem BioAssay AID1381 (University of Pittsburgh Molecular Library Screening Center, 2008).

Only a part is listed here, and it is no random draw. Some salts or complexes appear as unconnected parts, following the source record. The source made the active and inactive calls.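 Rule for the calls: active = plate z-score of nuclear minus cytoplasmic receptor signal below a set negative limit, without overly bright fluorescence or cell loss (cut at about -3.5 in these data, passing the limit was not always enough); inactive = the rest, inconclusive results apart.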

A short description of this experiment: inhibitors of GR-EGFP nuclear translocation, primary screen, dynein cargo transport inhibitor project, imaging, high-content, 3617.4 mouse cells (AID 1381). The note with it: stronger effect = lower value, stimulated with dexamethasone, 1 µM; at 20 µM unless noted.
For the compound `O=C(OC1CN2CCC1CC2)c1ccc([N+](=O)[O-])cc1` (stereo unspecified), the z-score is inactive: -0.469.

Consider `COc1ccc2c(c1O)-c1c(O)c(OC)cc3c1[C@H](C2)[N+](C)(C)CC3.O=[N+]([O-])c1cc([N+](=O)[O-])c([O-])c([N+](=O)[O-])c1[O-]`, for which the z-score was inactive: -0.405.

`CC(=O)Nc1ccc([As](=O)(O)O)c(O)c1`: the z-score is inactive: 1.26.

Consider `CC(=O)Nc1ccc(Oc2c([N+](=O)[O-])cc([N+](=O)[O-])cc2[N+](=O)[O-])cc1`, for which the z-score was inactive: 0.52.

As to `O=P1(Nc2nc3ccc(Cl)cc3s2)COc2ccccc2O1` (stereo unspecified), the z-score was inactive: 0.483.

On to `CCOc1ccc(C2=NCC(CBr)S2)cc1` (stereo unspecified), for which the z-score is inactive: 2.01.

Take `CC(C)(C)C(=O)NC(Sc1ccccc1)C(Cl)(Cl)Cl` (stereo unspecified): the z-score is inactive: -0.872.

Regarding `CC(C)c1ccc(OP(C)(=O)Nc2ccc(SC(F)(F)F)cc2)cc1` (stereo unspecified), the z-score is inactive: -0.033.

Regarding `CP(=O)(Nc1ccccc1F)Oc1ccccc1` (stereo unspecified), the z-score is inactive: -0.0553.

On to `CP(=O)(Nc1ccc2c(c1)OCCO2)Oc1ccccc1` (stereo unspecified), for which the z-score is inactive: 0.121 [at 50 µM].

For the compound `Cc1ccccc1NP(C)(=O)Nc1ccccc1C`, the z-score was inactive: -0.446.

`O=P(Nc1nccs1)(c1ccccc1)c1ccccc1`: the z-score is inactive: 0.601 [at 50 µM].

As for `CC(C)C(=O)NC(Sc1ccccc1)C(Cl)(Cl)Cl` (stereo unspecified), the z-score was inactive: -0.227.

As to `CP(=O)(Nc1ccc(SC(F)(F)F)cc1)Oc1ccc(F)cc1` (stereo unspecified), the z-score is inactive: -0.351.

For `c1nnnn1CCn1cnnn1`, the z-score is inactive: -0.0958.

With `CCOP(C)(=S)SCC(=O)NC(C)(CC)C(=O)O` (stereo unspecified), the z-score was inactive: -0.574.

Consider `O=[As](O)(c1ccccc1)c1ccc(O)cc1`, for which the z-score was inactive: 0.605.

On to `Cc1cc(-c2cccc3ccccc23)c(C)cn1.O=[N+]([O-])c1cc([N+](=O)[O-])c(O)c([N+](=O)[O-])c1`, for which the z-score was inactive: -0.923.

Regarding `O=[N+]([O-])c1cc([N+](=O)[O-])c(NCC2CCS(=O)(=O)C2)c([N+](=O)[O-])c1` (stereo unspecified), the z-score was inactive: -0.438.

Take `O=[N+]([O-])c1ccc(OP2(=O)COCCO2)cc1` (stereo unspecified): the z-score is inactive: 0.0905.

Regarding `CC(=O)NC(SC(=S)N(C)C)C(Cl)(Cl)Cl` (stereo unspecified), the z-score is inactive: 0.506.

In the case of `O=[N+]([O-])c1ncn(CCn2cnc([N+](=O)[O-])n2)n1`, the z-score is inactive: 0.775.

Regarding `O=C(OC1CN2CCC1CC2)c1cccc(Cl)c1` (stereo unspecified), the z-score was inactive: 0.103.

On to `Nc1ccc([As](=O)(O)c2ccc([N+](=O)[O-])cc2)cc1`, for which the z-score is inactive: -0.133.

With `C(Cc1nn[nH]n1)Cc1nn[nH]n1`, the z-score is inactive: -0.926.

Regarding `O=P(Nc1ccccn1)(c1ccc(Br)cc1)c1ccc(Br)cc1`, the z-score was inactive: -0.31.

On to `COc1ccc(OP(C)(=O)Nc2cccc(Br)c2)cc1` (stereo unspecified), for which the z-score is inactive: -0.0585.

Consider `COc1ccc(NP(C)(=O)Oc2ccccc2OC)cc1` (stereo unspecified), for which the z-score is inactive: -0.775.

Regarding `O=P(Nc1nc2ccccc2s1)(c1ccccc1)c1ccccc1`, the z-score was inactive: 0.263.

With `CN(C)CCOC(=O)C(O)(c1ccccc1)C1CCCCC1` (stereo unspecified), the z-score is inactive: 0.281 [at 50 µM].

For the compound `C[C@H]1OP(=O)(Oc2ccccc2)[C@H](O)[C@H](O)[C@H]1N=[N+]=[N-]` (stereo partly specified), the z-score is inactive: -0.0286.
